Biological target: Cannabinoid receptor 2 (Homo sapiens, UniProt P34972)
Assay: Displacement of [3H]CP-55940 from human recombinant CB2 receptor expressed in HEK cells
Type: cell-based, HEK293

Amino acid sequences for entries named in this document (tags omitted).
UniProt P34972, whole entry: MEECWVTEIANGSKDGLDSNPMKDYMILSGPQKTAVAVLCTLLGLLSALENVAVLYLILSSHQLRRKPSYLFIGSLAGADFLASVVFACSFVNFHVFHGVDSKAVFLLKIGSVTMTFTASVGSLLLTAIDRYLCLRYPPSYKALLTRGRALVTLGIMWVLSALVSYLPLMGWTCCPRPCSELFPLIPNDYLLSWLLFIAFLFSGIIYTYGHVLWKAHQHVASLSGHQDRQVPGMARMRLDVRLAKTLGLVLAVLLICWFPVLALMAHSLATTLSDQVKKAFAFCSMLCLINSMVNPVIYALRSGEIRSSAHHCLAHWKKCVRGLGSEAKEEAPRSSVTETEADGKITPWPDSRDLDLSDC

Cc1c(C(=O)NN2CCCCC2)nn(-c2ccc(Cl)cc2Cl)c1-c1ccc(I)cc1
Ki: 0.112 µM

— ChEMBL document CHEMBL1142276, “Synthesis, cannabinoid receptor affinity, and molecular modeling studies of substituted 1-aryl-5-(1H-pyrrol-1-yl)-1H-pyrazole-3-carboxamides” (J Med Chem, 2008)
